Results as given in ChEMBL document CHEMBL1764993, “Synthesis and biological evaluation of novel irreversible serine protease inhibitors using amino acid based sulfonyl fluorides as an electrophilic trap” (Bioorg Med Chem, 2011).
The source made the active and inactive calls. The rule behind the calls is not given here.

Assays:
Papain (Carica papaya) = target: T1, Papain (Carica papaya) (UniProt P00784); experiment: Inhibition of papaya papain assessed as p-nitroaniline release at 2.5 uM after 1 hr pre-inhibition using Bz-L-Tyr-pNA as a substrate by calorimetric assay
T1 sequence (whole entry): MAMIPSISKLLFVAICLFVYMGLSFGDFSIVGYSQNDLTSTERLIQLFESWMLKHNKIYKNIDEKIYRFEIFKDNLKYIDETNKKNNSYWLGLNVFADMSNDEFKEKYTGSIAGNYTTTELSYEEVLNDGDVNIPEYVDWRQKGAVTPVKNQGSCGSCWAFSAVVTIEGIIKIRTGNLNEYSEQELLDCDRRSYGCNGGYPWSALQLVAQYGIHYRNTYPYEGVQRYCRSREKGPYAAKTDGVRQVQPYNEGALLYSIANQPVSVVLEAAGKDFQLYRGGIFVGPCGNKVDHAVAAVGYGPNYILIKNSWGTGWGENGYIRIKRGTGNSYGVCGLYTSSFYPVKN

[1] = Inhibition of chymotrypsin assessed as p-nitroaniline release after 30 mins pre-incubated with compound for 1 hr before addition of Bz-L-Tyr-pNA as a substrate by calorimetric assay
Method in brief: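 Chymotrypsin (commercial, used as received) pre-incubated 1 h with inhibitor in DMSO in sodium phosphate 0.05 M pH 7.0; aliquot then added to Bz-L-Tyr-pNA. Final: enzyme 1.0 µM, substrate 0.25 mM; DMSO controls. p-Nitroaniline release read at 405 nm for 30 min at rt to give residual activity. Triplicate or quadruplicate.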

CC(C)[C@@H](CS(=O)(=O)F)NC(=O)OCc1ccccc1
Activity (Papain (Carica papaya)): Active | Activity [1]: Active
